The test system of the experiment is mdx mice. The experiment is described as follows: Duchenne muscular dystrophy mdx model. It counts as in vivo. More on the design: unit not given here. Particulars: after treatment, mean; Cpd 1 120 mg/kg p.o. b.i.d., prednisolone 5 mg/kg p.o. qd. An excerpt: The male mdx mice is the most used animal model for pre-clinical Duchenne muscular dystrophy (DMD) research.
Five-week-old mdx mice (Animal Resource Centre; Perth, WA, Australia) were allowed to acclimatise for 1 week to their surroundings, before being randomly allocated to one of four treatment groups or an untreated control group (15 animals per group) as described in the table below. At the start of the study, these groups were matched for mouse body weight.
The untreated control mdx mice were restrained throughout the study. Following 1-week acclimatisation, this group of mice also have baseline measurements of grip strength and body composition taken, which were repeated at ˜10 weeks and ˜15 weeks of age. Furthermore, these mice were weighed on a regular basis and their urine was collected at ˜6, ˜10 and ˜15 weeks of age. […]
Bone structure was evaluated via μCT analysis of cortical and trabecular bone on the femur.

Each structure is given as a SMILES string.

Compound `C[C@]12C=CC(=O)C=C1CC[C@@H]1[C@@H]2[C@@H](O)C[C@@]2(C)[C@H]1CC[C@]2(O)C(=O)CO` [prednisolone, reference compound] had a Tissue volume of 2.34.

The values above are taken from patent US20240124424A1, “SOLID FORMS OF (5S)-CYCLOPROPYL-5-[3-[(3S)-4-(3,5-DIFLUOROPHENYL)-3-METHYL-PIPERAZIN-1-YL]-3-OXO-PROPYL]IMIDAZOLIDINE-2,4-DIONE” (Galapagos NV, priority 2020, published 2024).
